# Yeast mating assay 1: variants of the scFv Ab-14

Binding partner: SARS-CoV-2 spike HR2 peptide, sequence PDVDLGDISGINAS.

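Phage display of a naive human antibody library on the peptide gave the parent. Library AAYL49 holds single substitutions and randomly drawn double and triple substitutions in the CDRs. The assay is AlphaSeq: two haploid yeast populations carry antibody and antigen on their surface. Pairs that bind mate more often; barcode pairs of the diploids are counted by sequencing. Each replicate has its own calibration line, from reference interactions of the BCL2 family. Each pool was mated in three replicate cultures.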

Each scFv is VH, a (GGGGS)3 linker, VL, as in the parent Ab-14, and differs from it in the CDRs of the heavy chain only.
VH: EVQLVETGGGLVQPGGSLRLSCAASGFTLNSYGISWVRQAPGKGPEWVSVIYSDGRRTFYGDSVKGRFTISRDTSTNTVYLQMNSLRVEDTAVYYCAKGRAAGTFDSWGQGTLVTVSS
VL: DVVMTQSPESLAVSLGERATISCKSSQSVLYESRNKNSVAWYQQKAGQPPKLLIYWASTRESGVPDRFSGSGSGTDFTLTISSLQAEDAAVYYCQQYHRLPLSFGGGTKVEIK

Substitutions are numbered in sequence along the VH above, starting at 1 (not Kabat).
This list gathers variants with a substitution at R100 (VH, numbered from residue 1).
Affinities are written as log10 Kd with Kd in nM; a lower number is a better binder.
Averages over replicates are reported, and they cover detected replicates only.
Where no diploid with the target was found in that replicate, the entry reads "nd": below detection, most likely a poor binder, though not proof of it.
Order: sorted from the lowest average up, undetected variants last.
Parent in this assay: reference entry 0.65, copy in this library 4.11 (one replicate of three).
Empty control strains, which show no peptide, gave a signal in 15% of pairings with library AAYL49; the median was 4.06 and 95% of these signals were weaker than 2.83. No background was subtracted.

With N30E/S53A/R100G the result was -0.03, 0.25, -0.13 (mean 0.03).
With G26N/G99E/R100W the result was 1.20, 1.13, 1.04 (mean 1.12).
With G26S/R100T/S107E the result was 1.61, 1.68, 1.64 (mean 1.64).
With D62F/R100W the result was 3.12, 2.59, 2.04 (mean 2.58).
With R100C/A101S/T104V the result was 3.02, 2.23, nd (mean 2.62).
With G26S/N30A/R100Y the result was 2.95, 2.49, 3.56 (mean 3.00).
With Y52I/D62L/R100P the result was nd, nd, 3.36.
With L29Q/V64M/R100F the result was nd, 4.01, 3.31 (mean 3.66).
With T28R/R100Y the result was 4.31, 3.58, 3.16 (mean 3.68).
With I34M/Y52P/R100W the result was nd, nd, 3.74.
With S63I/G99M/R100M the result was 3.77, 3.71, 4.78 (mean 4.09).
With G26R/G99R/R100Y the result was 3.96, 4.56, nd (mean 4.26).
With I34T/G55D/R100H the result was 5.06, nd, nd.
With R100S/F105E the result was 5.51, nd, nd.
With G55Y/K65Q/R100D the result was nd, nd, 5.86.
With V50E/D54E/R100Q the result was nd, nd, nd.
With G26W/Y52K/R100S the result was nd, nd, nd.
With G33W/D54C/R100V the result was nd, nd, nd.
With I51M/R100W/G103N the result was nd, nd, nd.
With S63A/R100A/F105C the result was nd, nd, nd.
With Y52T/R56F/R100V the result was nd, nd, nd.
With Y32P/G55H/R100H the result was nd, nd, nd.
With D54G/T58W/R100C the result was nd, nd, nd.
With N30L/V50F/R100P the result was nd, nd, nd.
With T58S/R100Y/D106F the result was nd, nd, nd.
With R57L/T58N/R100A the result was nd, nd, nd.
With G33F/S63A/R100I the result was nd, nd, nd.
With Y60G/R100L/D106M the result was nd, nd, nd.
With G26I/Y32C/R100V the result was nd, nd, nd.
With I51F/R100F/T104R the result was nd, nd, nd.

For reference, 3 entries of the list once more:

With G33W/D54C/R100V the result was nd, nd, nd.
With S63I/G99M/R100M the result was 3.77, 3.71, 4.78 (mean 4.09).
With G26R/G99R/R100Y the result was 3.96, 4.56, nd (mean 4.26).

Values reported by Engelhart et al. 2022, doi:10.1038/s41597-022-01779-4 (FLAb copy).